Data: PubChem BioAssay AID602140 (NMMLSC, 2011)
Only a part is listed here, and it is no random draw. Some results for these compounds are left out of this collection, so the calls shown say nothing about other tests. The source made the active and inactive calls. The rule behind the calls is not given here.

System: Botulinum neurotoxin type F light chain protease (Clostridium botulinum)
Experiment: inhibition of botulinum toxin F LC protease – biochemical, flow cytometry, cherry pick 1, confirmation (AID 602140)
Conditions: multiplex microsphere protease cleavage assay, at 10 µM, hits give high values

## CN1[C@@H]2CC[C@H]1CC(OC(=O)C(O)(c1ccccc1)c1ccccc1)C2 (stereo partly specified)
  inhibition: inactive: 0.4%
